Experiments:
[1] = target: A11_(2-196), full-length annexin A11 proline-rich domain, GB1 tag cleaved (human) (UniProt P50995)
[2] = target: GB1-tagged A11_(2-196)^G175R (human) (UniProt P50995)
[3] = target: S100A6 (calcyclin) dimer (human) (UniProt P06703); assay: AUC; sedimentation velocity, 50,000 rpm, 20 °C, absorbance at 280 nm; individual constructs at ~20 and ~50 μM and mixtures of A11-PRD constructs with S100A6

loss of ThT signal of A11 2-196 fibrils (50 μM, stationary phase, ~14 h) after addition of 100 μM S100A6 dimer; half-time t1/2; TEM showed a complete lack of fibrils [1]: 3.5 h
loss of ThT signal of fibrils of the G175R variant (50 μM, GB1-cleaved protein) after addition of 100 μM S100A6 dimer; half-time t1/2; residual fibrillar aggregates by TEM [2]: 13 h
stoichiometry N [3]: 2
Substance: S100A6 (calcyclin) dimer (from UniProt P06703 1-90) (natural protein)

Reference: PMC10401653
